## Yeast mating assay 2: variants of the scFv Ab-95

All variants were tested on one target, the spike HR2 peptide PDVDLGDISGINAS (SARS-CoV-2).

Ab-95 is the parent antibody, in scFv form: VH, then a (GGGGS)3 linker, then VL. The heavy chain is unchanged in all variants.
VH: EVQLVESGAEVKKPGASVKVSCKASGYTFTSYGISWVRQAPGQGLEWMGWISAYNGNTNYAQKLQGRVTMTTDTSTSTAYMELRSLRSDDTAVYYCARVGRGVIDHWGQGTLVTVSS
VL: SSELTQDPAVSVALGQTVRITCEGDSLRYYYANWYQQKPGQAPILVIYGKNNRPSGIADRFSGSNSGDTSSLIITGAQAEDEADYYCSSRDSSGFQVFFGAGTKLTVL

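The starting antibody came from a phage panning campaign against this peptide. The library (AAYL52) carries one to three amino acid substitutions per variant, with no insertions or deletions. The scFvs were displayed on barcoded MATa yeast, the peptide on MATalpha yeast. After mating in shaken culture at 30 °C for 16 h, diploids were selected and their barcode pairs sequenced. Each replicate has its own calibration line, from reference interactions of the BCL2 family. Mating was done three times.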

The parent's light chain CDRs are EGDSLRYYYAN, GKNNRPS, SSRDSSGFQVF; each variant's own CDRs replace them letter for letter.
Kd is apparent (estimated from mating counts) and averaged on the log scale over replicates with a signal. Smaller is tighter.
An entry "not detected" has no value in the source: the pair was not observed among the diploids in any replicate. This suggests poor binding but is not conclusive.
In this assay the parent's reference entry averaged 200 nM; its copy inside this library read 180 nM.
Background: pairings of library AAYL52 with three empty control strains gave a value in 28% of cases (median 8.2 µM, 5th percentile 800 nM). Values in that range, when seen in few replicates, are hard to tell from nonspecific mating.

| CDR-L1 | CDR-L2 | CDR-L3 | apparent Kd | seen in |
|---|---|---|---|---|
| EGDSLQYYRAN | GKNNRPS | SSRDSSGFQVK | 1.8 µM | 3 of 3 |
| EGDSLRYYYAN | GRNNRPS | SYRDSWGFQVF | 1.3 µM | 3 of 3 |
| EGVSLRYYYAN | GKNNRPS | SSRDMSGFQVA | 2.5 µM | 3 of 3 |
| EGDSLRYSYAN | GKQNRPS | SSRDSSGGQVF | 230 nM | 3 of 3 |
| VGDSLRYYYAN | GKYNRPS | SSRDSSGFQVR | 580 nM | 2 of 3 |
| EGDSLRYYYMN | GKNNRPS | YSRDSSHFQVF | 71 µM | 2 of 3 |
| EGDSDRYTYAN | GKNNFPS | SSRDSSGFQVF | not detected | 0 of 3 |
| EGDSLRYYYAN | GKNNRFS | SSRFSSGSQVF | 10 µM | 1 of 3 |
| EGDSLRYYYAN | GKNNRPS | SKHDSDGFQVF | 93 nM | 3 of 3 |
| EGDSLRYYYAR | GKNNRPS | SSRASSMFQVF | 820 nM | 2 of 3 |
| EGDSLRYYYAN | GENNRPS | SSRDSSGFQWF | 230 nM | 3 of 3 |
| EGTSLRYYYAN | GKNNMPS | SSRDSSGFQVS | 28 µM | 1 of 3 |
| EGDSLRYYWAN | GKNPRPS | YSRDSSGFQVF | not detected | 0 of 3 |
| EGLSLRYYYAN | GKNNRCS | SSADSSGFQVF | 4.7 µM | 2 of 3 |
| EGDSLRYYYAN | GKNLRPS | SSRDSGGFQRF | 4.2 µM | 3 of 3 |
| EGDSLRYYHAN | GKNNRPS | NSRDMSGFQVF | 22 nM | 3 of 3 |
| PGDSLICYYAN | GKNNRPS | SSRDSSGFQVF | 9.2 µM | 2 of 3 |
| EGDSLRYFYAN | GKNNRPS | SSRDSSGGQVQ | 230 nM | 3 of 3 |
| EGDSLRHYYAN | GKNNRPS | SSDDSSGPQVF | 530 nM | 3 of 3 |
| AGDSLRYYYAN | GKNNRPS | SSTDSHGFQVF | 440 nM | 3 of 3 |
| EGDSLRYYYRN | GKNNRPS | PSRDSTGFQVF | 7.7 µM | 2 of 3 |
| EGDSLRYQYAN | GKNNRPN | SSVDSSGFQVF | 26 nM | 3 of 3 |
| EADSLRYPNAN | GKNNRPS | SSRDSSGFQVF | 4.8 nM | 3 of 3 |
| EGDSDRYYYAN | YKNNRPS | SSRDSSGFQVT | 150 µM | 2 of 3 |
| EGESLRYYYAN | GKNRRPI | SSRDSSGFQVF | 1.4 µM | 3 of 3 |
| EGDSLRYYYAT | GKNNRPV | SSRDESGFQVF | not detected | 0 of 3 |
| EGDSLIYYYAN | GKNNRPS | SERDSSGTQVF | 7.0 µM | 2 of 3 |
| EGDSHRYYYAN | GINNRAS | SSRDSSGFQVF | 10 µM | 1 of 3 |
| EGDSLRYYYAN | GKNNRPS | SIRDSNGFQVF | 1.7 µM | 1 of 3 |
| ECDSLRYYYAN | GKNNRPS | SSRDSSGFGVF | 1.9 µM | 3 of 3 |
| EGDSLWYYYDN | GTNNRPS | SSRDSSGFQVF | 30 µM | 2 of 3 |
| HGDSLRFYYVN | GKNNRPS | SSRDSSGFQVF | 940 nM | 3 of 3 |
| EGDSLRYIYAN | GKRNRPS | SSRDSSGFQNF | 7.4 µM | 2 of 3 |
| EGSVLQYYYAN | GKNNRPS | SSRDSSGFQVF | 1.2 µM | 1 of 3 |
| ERDSLRYYYAN | GKNNFPS | SSRDSSGFQAF | 9.5 µM | 3 of 3 |
| CGDSLRYYYAN | GKNNRPS | SRRDSSGFQVP | not detected | 0 of 3 |
| CGDSLRYIYAN | GKNNRIS | SSRDSSGFQVF | not detected | 0 of 3 |
| EGDSLRYYYAN | GCNNRPS | DSRSSSGFQVF | not detected | 0 of 3 |
| EGDSLRYYYAG | GKNNLPS | SSIDSSGFQVF | 56 µM | 3 of 3 |
| EGDALPYYYAN | AKNNRPS | SSRDSSGFQVF | 2.7 µM | 1 of 3 |
| EGDSLRYYYAN | GKQNRSS | SSWDSSGFQVF | 2.8 µM | 2 of 3 |
| EGDSLRYYYAN | GKNNRPT | AHRDSSGFQVF | 980 nM | 3 of 3 |
| EGDSLRYYYAN | GKNNRPS | GSNDSEGFQVF | 200 nM | 3 of 3 |
| EGDSLRFYYSN | GKNNHPS | SSRDSSGFQVF | 7.5 µM | 1 of 3 |
| EFDSLRYYEAN | GKNDRPS | SSRDSSGFQVF | 1.4 µM | 3 of 3 |
| EGDSSTYYYAN | GKNNRPS | SSRDSSGYQVF | 19 µM | 2 of 3 |
| EGDSLRFYYAN | GKHNRPS | MSRDSSGFQVF | 3.0 µM | 3 of 3 |
| EGDSLLYYYAN | GKLDRPS | SSRDSSGFQVF | 26 µM | 3 of 3 |
| EGDSLRYYDAN | GKNNRPS | SWRDSSGFQVF | 97 nM | 3 of 3 |
| EGDSLRYYYAN | LKNNRPS | SSRQSSQFQVF | 130 µM | 1 of 3 |
| EGESLRYYYKN | GKMNRPS | SSRDSSGFQVF | 3.7 µM | 1 of 3 |
| EGDSLRYYYAN | MKNNRPK | SSRDSSGFQVF | 1.2 µM | 2 of 3 |
| EGDSLRYYYAN | GKDNRPS | SSRDSSWFHVF | 360 nM | 3 of 3 |
| EGDSLRYYYAN | GNNFMPS | SSRDSSGFQVF | 1.1 µM | 2 of 3 |
| EGTSLRYYYAN | GKNNRPS | SSRDSSGLWVF | 89 nM | 3 of 3 |
| EADRLRYYYAA | GKNNRPS | SSRDSSGFQVF | 7.2 µM | 1 of 3 |
| EGDSLDYYYAN | GKNNRNS | SSRDSSGFQVF | 38 µM | 3 of 3 |
| EGDSLRYYYAP | GKNNRPS | SSRMSSGFQKF | not detected | 0 of 3 |
| EGDSLRYYCAN | GKNNRPS | SSRDKSGCQVF | 210 nM | 3 of 3 |
| ETDSLCYYYAN | GKNNRPS | SSIDSSGFQVF | 3.4 µM | 2 of 3 |
| EGDSLRYYYAN | GKNNRPS | SSNDSSWFQVS | not detected | 0 of 3 |
| EGDSLRYAYAN | GKNNRPS | SSRDKSGFQVF | 12 nM | 3 of 3 |
| EGDSLRYQYAN | GKNNRPS | SSRDSSVFKVF | 12 nM | 3 of 3 |
| EGASLRPYYAN | GKNNRPS | SHRDSSGFQVF | 210 nM | 3 of 3 |
| EGDSLRYYYAN | GMNNRPS | TSRDSSGFQVF | 3.3 µM | 3 of 3 |
| EGDSLRYYYAN | EKNNRPD | SSRDSSGFQNF | 19 µM | 2 of 3 |
| EGDSLRYYYAN | NKNNRPS | QSRDSSGFCVF | not detected | 0 of 3 |
| EGDSLRYYYAY | GKDNRPV | SSRDSSGFQVF | 97 µM | 1 of 3 |

The last 10 entries again:

CDR-L1	CDR-L2	CDR-L3	apparent Kd	seen in
EGDSLRYYCAN	GKNNRPS	SSRDKSGCQVF	210 nM	3 of 3
ETDSLCYYYAN	GKNNRPS	SSIDSSGFQVF	3.4 µM	2 of 3
EGDSLRYYYAN	GKNNRPS	SSNDSSWFQVS	not detected	0 of 3
EGDSLRYAYAN	GKNNRPS	SSRDKSGFQVF	12 nM	3 of 3
EGDSLRYQYAN	GKNNRPS	SSRDSSVFKVF	12 nM	3 of 3
EGASLRPYYAN	GKNNRPS	SHRDSSGFQVF	210 nM	3 of 3
EGDSLRYYYAN	GMNNRPS	TSRDSSGFQVF	3.3 µM	3 of 3
EGDSLRYYYAN	EKNNRPD	SSRDSSGFQNF	19 µM	2 of 3
EGDSLRYYYAN	NKNNRPS	QSRDSSGFCVF	not detected	0 of 3
EGDSLRYYYAY	GKDNRPV	SSRDSSGFQVF	97 µM	1 of 3

From the AlphaSeq antibody data of Engelhart et al. 2022 (doi:10.1038/s41597-022-01779-4), copy in the FLAb collection.